The test addresses T1, CYP2C19 (Homo sapiens, UniProt P33261).
T1 construct: recombinant CYP450, commercial (Research Institute for Liver Diseases, Shanghai); P450-Glo Screening System (Promega)
Nature of the test: P450-Glo inhibition assay, recombinant CYP. Type of test: biochemical. As to conditions: read-out: IC50 (μM) (95% Confidence Interval) / Positive Control ^a. The source says: P450-Glo inhibition assay, recombinant CYP on CYP2C19

Amino acid sequences for entries named in this document (tags omitted).
UniProt P33261, whole entry: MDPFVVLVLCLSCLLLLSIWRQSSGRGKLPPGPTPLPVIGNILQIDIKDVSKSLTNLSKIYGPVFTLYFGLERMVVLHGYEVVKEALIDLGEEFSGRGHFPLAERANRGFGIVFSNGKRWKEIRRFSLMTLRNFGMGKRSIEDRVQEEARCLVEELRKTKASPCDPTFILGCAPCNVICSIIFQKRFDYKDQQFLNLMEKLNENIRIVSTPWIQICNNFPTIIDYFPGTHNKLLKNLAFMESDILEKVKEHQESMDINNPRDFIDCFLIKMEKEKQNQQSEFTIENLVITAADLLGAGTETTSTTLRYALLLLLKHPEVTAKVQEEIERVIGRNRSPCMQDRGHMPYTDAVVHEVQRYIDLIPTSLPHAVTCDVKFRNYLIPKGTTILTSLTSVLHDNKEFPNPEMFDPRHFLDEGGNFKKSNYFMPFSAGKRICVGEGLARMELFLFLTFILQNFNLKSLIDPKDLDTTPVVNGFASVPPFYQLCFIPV

Structures are written as SMILES.

As for `Cc1c(C)c2c(c(C)c1O)CCC(C)(COc1ccc(CC3SC(=O)NC3=O)cc1)O2` (stereo not shown) [troglitazone, reference compound], the IC50 turned out to be 6 µM.

Source of the values: article PMC6102536, “A Metabolism-Based Synergy for Total Coumarin Extract of Radix Angelicae Dahuricae and Ligustrazine on Migraine Treatment in Rats” (Molecules : A Journal of Synthetic Chemistry and Natural …, 2018).
